Assay results: patent US20110093964A1

Key:
[1] = molecular target: MLCKp peptide, 17 residues, derived from the calmodulin-binding domain of a rabbit muscle myosin light chain kinase (CALBIOCHEM) (rabbit); assay: tryptophan fluorescence of 5 uM MLCKp with one equivalent of calmodulin after adding 10 equivalents of calcium; maximum stays at 330 nm
[2] = molecular target: MLCKp peptide, 17 residues, derived from the calmodulin-binding domain of a rabbit muscle myosin light chain kinase (CALBIOCHEM) (rabbit); assay: tryptophan fluorescence of 5 uM MLCKp (excitation 280 nm) in 10 mM MES pH 6.5, one equivalent of calmodulin, no metals; free peptide emits at 350 nm
[3] = molecular target: MLCKp peptide, 17 residues, derived from the calmodulin-binding domain of a rabbit muscle myosin light chain kinase (CALBIOCHEM) (rabbit); assay: tryptophan fluorescence of 5 uM MLCKp (excitation 280 nm) in 10 mM MES pH 6.5, one equivalent of calmodulin, no metals

## native bovine brain calmodulin (from UniProt P62157 2-149)
[1]
  increase in tryptophan fluorescence intensity: 20%
[2]
  maximum of tryptophan fluorescence emission: 330 nm
[3]
  increase in tryptophan fluorescence intensity: 25%
